Curated experimental data: fraction unbound values

Values as listed in the OPERA 2.9 repository of K. Mansouri.

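OPERA's authors assembled the values from existing databases and did not measure them anew. The files give a single number for a compound and property, which may rest on several reports. Method and conditions are not stated for these values. Where a salt, mixture or single isomer is drawn, the source does not say that exactly this form was tested. Unmarked limits or estimates from the upstream databases cannot be ruled out.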

fu is the fraction unbound in human plasma, from 0 to 1.
"n/a" marks a cell with nothing listed here.

The entry for O.O.O.[PbH2+2].CC([O-])=O.CC([O-])=O lists fu 0.88.
The entry for CC[C@@]1(O)C[N@@]2CC[C@H]1C[C@@H]2[C@@H](O)c1ccnc2ccc(OC)cc12 [3-Hydroxyhydroquinidine] lists fu 0.47.
The entry for C[C@]12CCC(=O)C=C1C=C[C@@H]1[C@@H]2CC[C@@]2(C)[C@H]1CC[C@@]2(O)CCC(=O)O [Canrenoic acid] lists fu 0.06.
The entry for CCOP(=S)(OCC)Oc1cc(C)nc(C(C)C)n1 [Diazinon] lists fu 0.02065.
The entry for Cc1cccc(C)c1N [2,6-Dimethylaniline] lists fu 0.4311.
The entry for O=C(O)COc1nc(Cl)c(Cl)cc1Cl [Triclopyr] lists fu 0.02173.
The entry for Oc1ccccc1-c1ccccc1 [2-Phenylphenol] lists fu 0.04075.
The entry for Clc1ccc2c(c1)C(c1ccccc1)=NCc1nncn1-2 [Estazolam] lists fu 0.07.
The entry for Cc1nnc(-c2ccccc2)c(=O)n1N [Metamitron] lists fu 0.693.
The entry for COc1cc2O[C@H]3OC=C[C@H]3c2c2OC(=O)C3=C(CCC3=O)c12 lists fu 0.458.
The entry for CCOC(=O)[C@]1(c2ccccc2)CCC=C[C@H]1N(C)C [Tilidine] lists fu 0.345.
The entry for CN1CC[C@]23CCCC[C@H]2[C@H]1Cc1ccc(O)cc13 [Levorphanol] lists fu 0.6.
The entry for CCN(CC)C(=O)N[C@H]1C=C2c3cccc4[nH]cc(c34)C[C@H]2N(C)C1 [Lisuride] lists fu 0.3.
The entry for CCN(CC)C(=O)[C@@H]1C=C2c3cccc4[nH]cc(c34)C[C@H]2N(C)C1 [Lysergide] lists fu 0.1.
The entry for CCCCCCCCOC(=O)c1ccccc1C(=O)OCCCCCCCC [Di-n-octyl phthalate] lists fu 0.0233.
The entry for CC[C@H](C)[C@H]1O[C@]2(C=C[C@@H]1C)C[C@@H]1C[C@@H](CC=C(C)[C@@H](O[C@H]3C[C@H](OC)[C@@H](O[C@H]4C[C@H](OC)[C@@H](O)[C@H](C)O4)[C@H](C)O3)[C@@H](C)C=CC=C3CO[C@@H]4[C@H](O)C(C)=C[C@@H](C(=O)O1)[C@]34O)O2 [Abamectin B1a] lists fu 0.067.
The entry for O=C(Nc1ccccc1)c1ccccc1I [Benodanil] lists fu 0.07513.
The entry for C=CCC1(C(C)C)C(=O)NC(=O)NC1=O [Aprobarbital] lists fu 0.38.
The entry for CC[C@@H](CO)NC(=O)[C@@H]1C=C2c3cccc4[nH]cc(c34)C[C@H]2N(C)C1 [Methergine] lists fu 0.65.
The entry for Nc1ccc(Cl)cc1 lists fu 0.264.
The entry for CCOC1Oc2ccc(OS(C)(=O)=O)cc2C1(C)C (stereo not drawn) [Ethofumesate] lists fu 0.1309.
The entry for O=C(CCl)Nc1ccccc1 [2-chloro-n-phenylacetamide] lists fu 0.401.
The entry for CC(C)C[C@H]1C(=O)N2CCC[C@H]2[C@]2(O)O[C@](NC(=O)[C@@H]3C=C4c5cccc6[nH]c(Br)c(c56)C[C@H]4N(C)C3)(C(C)C)C(=O)N12.CS(=O)(=O)O [Bromocriptine mesylate] lists fu 0.02459.
The entry for Cc1ccc([N+](=O)[O-])cc1 [4-Nitrotoluene] lists fu 0.2659.
The entry for COc1nc(NC(C)C)nc(NC(C)C)n1 [Prometon] lists fu 0.0157.
The entry for ClC1=C(Cl)[C@@]2(Cl)[C@H]3[C@H](Cl)[C@@H]4O[C@@H]4[C@H]3C1(Cl)C2(Cl)Cl [Heptachlor epoxide] lists fu 0.01068.
The entry for Oc1cc(Cl)c(Cl)cc1Cl [2,4,5-Trichlorophenol] lists fu 0.01266.
The entry for CCC1(CC)C(=O)NC(=O)NC1=O [Barbital] lists fu 0.9.
The entry for CCc1cccc(CC)c1N [2,6-Diethylaniline] lists fu 0.08962.
The entry for C[C@]12CCC(=O)C(O)=C1CC[C@@H]1[C@@H]2CC[C@]2(C)C(=O)CC[C@@H]12 [4-Hydroxyandrostenedione] lists fu 0.16.
The entry for CNC(=O)Oc1ccccc1OC(C)C [Propoxur] lists fu 0.2167.
The entry for O=C(Nc1ccccc1F)NC1N=C(c2ccccc2)c2ccccc2NC1=O (stereo not drawn) lists fu 0.03097.
The entry for CC(=O)O[C@H]1[C@@H](O)C[C@H](O[C@H]2[C@@H](O)C[C@H](O[C@H]3[C@@H](O)C[C@H](O[C@H]4CC[C@@]5(C)[C@H](CC[C@@H]6[C@@H]5C[C@@H](O)[C@]5(C)[C@@H](C7=CC(=O)OC7)CC[C@]65O)C4)O[C@@H]3C)O[C@@H]2C)O[C@@H]1C [beta-Acetyldigoxin] lists fu 0.85.
The entry for CC1(c2ccc(Oc3ccccc3)cc2)OC(=O)N(Nc2ccccc2)C1=O (stereo not drawn) [Famoxadone] lists fu 0.0097.
The entry for Cc1ccccc1-n1c(C)nc2ccccc2c1=O [Methaqualone] lists fu 0.15.
The entry for CCc1cc2c(s1)-n1c(C)nnc1CN=C2c1ccccc1Cl [Etizolam] lists fu 0.07.
The entry for CN(C)C(=O)Oc1cc(OC(=O)N(C)C)cc(C(O)CNC(C)(C)C)c1 (stereo not drawn) [Bambuterol] lists fu 0.55.
The entry for N#CC(CCN1CCC(C(N)=O)(N2CCCCC2)CC1)(c1ccccc1)c1ccccc1 [Piritramide [INN:BAN:DCF]] lists fu 0.06083.
The entry for Nc1cc2c3c(c1)C(c1ccccc1)=N[C@@H](NC(=O)c1cccnc1)C(=O)N3CC2 [Ci-1044] lists fu 0.198.
The entry for CC(=O)O[C@H]1C[C@H](O[C@H]2[C@@H](O)C[C@H](O[C@H]3[C@@H](O)C[C@H](O[C@H]4CC[C@@]5(C)[C@H](CC[C@@H]6[C@@H]5C[C@@H](O)[C@]5(C)[C@@H](C7=CC(=O)OC7)CC[C@]65O)C4)O[C@@H]3C)O[C@@H]2C)O[C@H](C)[C@H]1O [alpha-Acetyldigoxin] lists fu 0.75.
The entry for C/C(=C/C=C/[C@@H](C)C(=O)O)[C@H]1CN[C@H](C(=O)O)[C@H]1CC(=O)O [L-Domoic acid] lists fu 0.92.
The entry for CNC1(c2ccccc2Cl)CCCCC1=O (stereo not drawn) [Ketamine] lists fu 0.6763.
The entry for CCC1(c2ccccc2)CCC(=O)NC1=O (stereo not drawn) [Glutethimide] lists fu 0.5.
The entry for Cc1ccccc1O [o-Cresol] lists fu 0.38.
The entry for CN1C(=O)CCS(=O)(=O)C1c1ccc(Cl)cc1 (stereo not drawn) [Chlormezanone] lists fu 0.5.
The entry for CC(NC(C)(C)C)C(=O)c1cccc(Cl)c1 (stereo not drawn) [Bupropion] lists fu 0.3675.
The entry for O=P(OC(CCl)CCl)(OC(CCl)CCl)OC(CCl)CCl [Tris(1,3-dichloro-2-propyl) phosphate] lists fu 0.01078.
The entry for COc1cc(CCN)cc(OC)c1OC [Mescaline] lists fu 0.85.
The entry for CC(=O)O[C@H]1C[C@@H]2CC[C@@H]3[C@H](CC[C@@]4(C)[C@H]3C[C@H]([N+]3(C)CCCCC3)[C@@H]4OC(C)=O)[C@@]2(C)C[C@@H]1[N+]1(C)CCCCC1 [Pancuronium] lists fu 0.09.
The entry for O=C(O)COc1ccc(Cl)cc1Cl [2,4-Dichlorophenoxyacetic acid] lists fu 0.04102.
The entry for O=NN(c1ccccc1)c1ccccc1 [N-Nitrosodiphenylamine] lists fu 0.04368.
The entry for ClC(Cl)(Cl)Cl lists fu 0.6105.
The entry for CC(c1ccc(O)cc1)(c1ccc(O)cc1)c1ccc(O)cc1 lists fu 0.0141.

7 of these entries, quoted again:

compound	name	fu
CC(=O)O[C@H]1C[C@@H]2CC[C@@H]3[C@H](CC[C@@]4(C)[C@H]3C[C@H]([N+]3(C)CCCCC3)[C@@H]4OC(C)=O)[C@@]2(C)C[C@@H]1[N+]1(C)CCCCC1	Pancuronium	0.09
CN1CC[C@]23CCCC[C@H]2[C@H]1Cc1ccc(O)cc13	Levorphanol	0.6
C/C(=C/C=C/[C@@H](C)C(=O)O)[C@H]1CN[C@H](C(=O)O)[C@H]1CC(=O)O	L-Domoic acid	0.92
CC(NC(C)(C)C)C(=O)c1cccc(Cl)c1 (stereo not drawn)	Bupropion	0.3675
O=C(O)COc1ccc(Cl)cc1Cl	2,4-Dichlorophenoxyacetic acid	0.04102
Oc1ccccc1-c1ccccc1	2-Phenylphenol	0.04075
O=C(Nc1ccccc1F)NC1N=C(c2ccccc2)c2ccccc2NC1=O (stereo not drawn)	n/a	0.03097